The list shows a part of the results, in another mix than the full data. Calls of active or inactive are those of the source. How the source made its calls: active means hit-call score of the fitted dose curve at least 0.9, where 1 is the maximum; inactive means score below 0.9.
What was measured:
[1] = APR_HepG2_CellCycleArrest_24hr: Apredica 24-hour HepG2 Assay for Cell Cycle Arrest (AID 2282905); conditions: imaging, actives raise or lower the signal;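 further: cell cycle arrest scored as ratio of 2N to 4N nuclear DNA content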
Procedure, shortened: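 Compounds (0.39 to 200 uM, final DMSO 0.5% v/v) are applied to HepG2 cells for 24 hours; cells are then fixed, permeabilized and nuclei labeled with Hoechst 33342. Automated imaging measures DNA content, and activity is fitted in both directions against DMSO.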

[2] = APR_HepG2_NuclearSize_24hr: Apredica 24-hour HepG2 Assay for Nuclear Size (AID 2282907); conditions: high-content imaging, actives raise or lower the signal
Procedure, shortened: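 Nuclear size is measured by fluorescence high-content imaging of Hoechst-labelled HepG2 nuclei after 24 hr of treatment (0.39–200 uM, 0.5% DMSO). Cells are fixed in 3.7% formaldehyde before staining, and DMSO serves as the baseline for bidirectional curve fitting.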

[3] = APR_HepG2_CellLoss_24hr: Apredica 24-hour HepG2 Assay for Cell Loss (AID 2282908); conditions: high-content imaging
Procedure, shortened: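 Nuclear count serves as the viability measure: treated cells are fixed, permeabilized and labelled with Hoechst 33342, and six images per well are analysed to identify valid nuclei. Doses span 0.39–200 uM, and activity in either direction is scored against DMSO.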

[4] = APR_HepG2_MicrotubuleCSK_24hr: Apredica 24-hour HepG2 Assay for Microtubule CSK Stabilty (AID 2282909); conditions: HepG2 microtubule cytoskeleton imaging, actives raise or lower the signal
Procedure, shortened: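 Compounds were applied to HepG2 cells for 24 hours across 0.39–200 uM in duplicate, with final DMSO at 0.5% v/v. Fixed, permeabilized cells were labeled for alpha-tubulin and nuclei, and tubulin fluorescence was quantified by imaging, fitted bidirectionally against DMSO.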

[5] = APR_HepG2_MitoticArrest_24hr: Apredica 24-hour HepG2 Assay for Mitotic Arrest (AID 2282910); conditions: high-content imaging, actives raise or lower the signal
Procedure, shortened: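 HepG2, 24 hr dosing, 0.39–200 uM, 0.5% DMSO final. Formaldehyde-fixed, Triton-permeabilised, anti-phospho-histone H3 plus Hoechst. ArrayScan imaging at 20x; bidirectional fit vs DMSO baseline.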

[6] = APR_HepG2_MitoMembPot_24hr: Apredica 24-hour HepG2 Assay for Mitochondrial Membrane Potential (AID 2282911); conditions: imaging, actives raise or lower the signal
Procedure, shortened: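 HepG2 human liver cells were exposed 24 hr to compounds at 0.39–200 uM (final DMSO 0.5% v/v) in duplicate. MitoTracker Red CMXRos (250 nM, 30 min) was loaded before formaldehyde fixation; fluorescence was imaged by ArrayScan HCS and fitted bidirectionally versus DMSO.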

[7] = APR_HepG2_MitoMass_24hr: Apredica 24-hour HepG2 Assay for Mitochondrial Mass (AID 2282912); conditions: high-content imaging, actives raise or lower the signal
Procedure, shortened: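 After 24 hr of treatment at 0.39 to 200 uM, HepG2 cells take up 250 nM MitoTracker Red CMXRos for 30 min and are then fixed with 3.7% formaldehyde. Per-well images are quantified, and any change in either direction is scored against solvent.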

[8] = APR_HepG2_p53Act_24hr: Apredica 24-hour HepG2 Assay for p53 Activation (AID 2282913); conditions: high-content imaging, actives raise or lower the signal;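 further: p53 protein immunofluorescence averaged per cell in HepG2 with Hoechst nuclei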
Procedure, shortened: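 HepG2 cells exposed 24 hr to compounds at 0.39–200 uM (10 concentrations, duplicate), final DMSO 0.5% v/v. After formaldehyde fixation and Triton permeabilization, p53 was immunolabeled (sheep anti-p53, Cy5 secondary) with Hoechst 33342 nuclear counterstain, then imaged by high-content fluorescence microscopy.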

[9] = APR_HepG2_CellCycleArrest_72hr: Apredica 72-hour HepG2 Assay for Cell Cycle Arrest (AID 2282914); conditions: high-content imaging, actives raise or lower the signal
Procedure, shortened: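 HepG2 cells were exposed to compounds at 0.39–200 uM (0.5% v/v DMSO final, duplicates) for 72 hr, fixed in 3.7% formaldehyde, permeabilized and stained with Hoechst 33342. Nuclear DNA content was quantified by high-content imaging; gain or loss of signal was fitted bidirectionally against DMSO.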

[10] = APR_HepG2_CellLoss_72hr: Apredica 72-hour HepG2 Assay for Cell Loss (AID 2282915); conditions: high-content imaging
Method: APR_HepG2_72hr is a cell-based, multiplexed-readout assay that uses HepG2, a human liver cell line, with measurements taken at 72 hours after chemical dosing in a 384-well plate.APR_HepG2_CellLoss_72hr is one of 10 assay component(s) measured or calculated from the APR_HepG2_72hr assay. It is designed to make measurements of cell number, a form of viability reporter, as detected with fluorescence intensity signals by HCS Fluorescent Imaging technology.Data from the assay component APR_HepG2_CellLoss_72hr was analyzed into 1 assay endpoint. This assay endpoint, APR_HepG2_CellLoss_72hr, was analyzed with bidirectional fitting relative to DMSO as the negative control and baseline of activity. Using a type of viability reporter, measures of all nuclear dna for gain or loss-of-signal activity can be used to understand the viability at the cellular-level. Furthermore, this assay endpoint can be referred to as a secondary readout, because this assay has produced multiple assay endpoints where this one serves a viability function. To generalize the intended target to other relatable targets, this assay endpoint is annotated to the cell cycle intended target family, where the subfamily is proliferation.
Cells were treated with dimethyl sulfoxide (DMSO) as a solvent control at a final concentration of 0.5% v/v or with compounds in DMSO with a resulting final DMSO concentration of 0.5% v/v. Compound treatment was done at concentrations of 0.39, 0.78, 1.56, 3.12, 6.24, 12.5, 25, 50, 100, and 200 uM in duplicate on each plate. Cells were treated with compounds for 1, 24, or 72 hr. Carbonyl […] m-chloro-phenylhydrazone (CCCP) and taxol were used as positive controls for mitochondrial function and cytoskeletal stability, respectively; DMSO served as the negative control for this experiment. Cells were fixed by the direct addition of 50 uL formaldehyde in Hank's Balanced Salt Solution (HBSS) to a final concentration of 3.7%. […] For mitochondrial membrane potential and mitochondrial measurements, pre-fixed cells were incubated with 50 uL of MitoTracker Red CMXRos (Invitrogen) at a concentration of 250 nM for 30 min before fixation. […] Cells were labeled for multiplexed imaging on two separate plates: a) Hoechst 33342, MitoTracker Red, phospho-histone H3, and alpha-tubulin, and b) Hoechst 33342, phospho-histone H2A.x, and c-Jun. A final rinse with HBSS (50 uL) was performed before analysis. The primary and secondary antibodies for the proteins were phospho-histone H3 (rabbit anti-phospho-histone H3 and FITC-donkey anti-rabbit IgG), phospho-histone H2A.x (mouse anti-phospho-histone H2A.x and FITC-donkey anti-mouse IgG), c-Jun (rabbit anti-phospho-c-Jun and Cy3-donkey anti-rabbit IgG), p53 (sheep anti-p53 and Cy5-donkey anti-sheep IgG), alpha-tubulin (mouse anti-alpha-tubulin and Cy5-donkey anti-mouse IgG). These antibodies are available as the CellCiphr HepG2 assay kit (Millipore).Digital images of each well were captured using a Cellomics ArrayScan VTI (Thermo Scientific Cellomics) (0.8 NA objective, 0.63x optical coupler, and XF-93 filter set) at 20x magnification. […] Six digital images were captured in each well and analyzed using BioApplication software, which was provided with the instrument. All images were analyzed using the Compartmental Analysis and Cell Cycle Analysis BioApplication software from Cellomics. The Cell Cycle BioApplication software used the nuclear stain to identify valid cells, to measure nuclear diameter, and to quantify DNA content. […]

[11] = APR_HepG2_P-H2AX_72hr: Apredica 72-hour HepG2 Assay for H2AX Phosphorylation (AID 2282916); conditions: imaging, actives raise or lower the signal;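 further: phospho-histone H2A.x immunostain intensity per cell marking DNA damage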
Procedure, shortened: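 Human hepatoma HepG2 cells are dosed across ten concentrations (0.39 to 200 uM, 0.5% v/v DMSO) and incubated 72 hr. Phospho-histone H2A.x is then detected by antibody staining alongside c-Jun and Hoechst, and quantified by automated fluorescence imaging.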

[12] = APR_HepG2_MitoMembPot_72hr: Apredica 72-hour HepG2 Assay for Mitochondrial Membrane Potential (AID 2282917); conditions: imaging, actives raise or lower the signal
Procedure, shortened: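 HepG2 cells dosed 72 hr with compound at 0.39–200 uM in duplicate, 0.5% v/v DMSO final. Mitochondria stained with 250 nM MitoTracker Red CMXRos for 30 min before formaldehyde fixation, imaged by high-content fluorescence; bidirectional fit versus DMSO.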

[13] = APR_HepG2_MitoticArrest_72hr: Apredica 72-hour HepG2 Assay for Mitotic Arrest (AID 2282918); conditions: high-content imaging, actives raise or lower the signal
Procedure, shortened: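 HepG2 cells were exposed for 72 hr to compound at 0.39–200 uM (10 concentrations, duplicate) in 0.5% v/v DMSO, fixed in 3.7% formaldehyde, immunostained for phospho-histone H3 with Hoechst 33342 and imaged by high-content fluorescence; bidirectional fits versus DMSO.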

[14] = APR_HepG2_MicrotubuleCSK_72hr: Apredica 72-hour HepG2 Assay for Microtubule CSK Stabilty (AID 2282919); conditions: HepG2 microtubule cytoskeleton, high-content imaging, actives raise or lower the signal
Procedure, shortened: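 HepG2, 72 hr cmpd exposure, 0.39–200 uM (10 pts, duplicate), 0.5% DMSO. 3.7% formaldehyde fix, 0.5% Triton perm, anti-alpha-tubulin/Cy5 plus Hoechst. HCS fluorescence intensity; bidirectional fit vs DMSO baseline; taxol as positive control.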

[15] = APR_HepG2_P-H2AX_24hr: Apredica 24-hour HepG2 Assay for H2AX Phosphorylation (AID 2282920); conditions: high-content imaging, actives raise or lower the signal
Procedure, shortened: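 HepG2 human liver cells were exposed for 24 hr to compounds at 0.39–200 uM in duplicate, with 0.5% v/v DMSO final. Fixed cells were immunostained for phospho-histone H2A.x plus Hoechst 33342, imaged by HCS fluorescence, and fitted bidirectionally against DMSO.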

[16] = APR_HepG2_StressKinase_72hr: Apredica 72-hour HepG2 Assay for Stress Kinase (AID 2282921); conditions: HepG2 stress kinase (phospho-c-Jun) imaging, actives raise or lower the signal
Procedure, shortened: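 After a 72 h compound treatment spanning 0.39 to 200 uM, formaldehyde-fixed cells are labelled for phosphorylated c-Jun and nuclei, imaged by automated fluorescence microscopy, and activity is fitted in both directions relative to DMSO controls.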

[17] = APR_HepG2_StressKinase_24hr: Apredica 24-hour HepG2 Assay for Stress Kinase (AID 2282922); conditions: HepG2 stress kinase (phospho-c-Jun) imaging, actives raise or lower the signal
Procedure, shortened: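 Read-out: phospho-c-Jun immunofluorescence (Cy3 secondary) quantified by high-content imaging at 20x, nuclei defined by Hoechst 33342. Human HepG2 liver cells dosed 24 hr, 0.39–200 uM, DMSO 0.5% v/v; gain or loss of signal fitted relative to DMSO.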

[18] = APR_HepG2_p53Act_72hr: Apredica 72-hour HepG2 Assay for p53 Activation (AID 2282923); conditions: high-content imaging, actives raise or lower the signal;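 further: average cellular p53 protein immunofluorescence intensity in HepG2 cells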
Procedure, shortened: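 Imaging-based endpoint: after 72 hr compound exposure (up to 200 uM, 0.5% DMSO), fixed and permeabilized monolayers were labelled with anti-p53 antibody and imaged; signal change in either direction was fitted relative to DMSO controls.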

[19] = APR_HepG2_MitoMass_72hr: Apredica 72-hour HepG2 Assay for Mitochondrial Mass (AID 2282924); conditions: high-content imaging, actives raise or lower the signal;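 further: MitoTracker Red CMXRos stain intensity per cell imaged as mitochondrial mass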
Procedure, shortened: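 Read-out: MitoTracker Red fluorescence intensity from automated imaging (20x, six fields per well) in human HepG2 liver cells. Dosing ran 72 hr, 0.39–200 uM, 0.5% DMSO; bidirectional curve fitting versus DMSO baseline.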

[20] = APR_HepG2_NuclearSize_72hr: Apredica 72-hour HepG2 Assay for Nuclear Size (AID 2282925); conditions: high-content imaging, actives raise or lower the signal
Procedure, shortened: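 Read-out: nuclear diameter from Hoechst 33342 images (ArrayScan, 20x, six fields/well), via cell-cycle image analysis. HepG2 were dosed 0.39–200 uM for 72 hr in 0.5% DMSO. Bidirectional fit relative to DMSO.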

Measured: outcome

CC(C)OP(C)(=O)OC(C)C
inactive: all assays above

Cc1c([N+](=O)[O-])cccc1[N+](=O)[O-]
inactive: all assays above

O=[N+]([O-])c1cccc([N+](=O)[O-])c1
inactive: all assays above

Reference: PubChem BioAssay (EPA / NIEHS)
